Measurements taken from ChEMBL document CHEMBL6087453, “Minimalist Natural ORPphilin Macarangin B Delineates OSBP Biological Function” (J Med Chem, 2025).
Calls of active or inactive are those of the source. The calls are words filed in the database; no cut-off is given here.

Tested on: Zika virus
Test: Antiviral activity against ZIKV PF-25013-18 infected in human A549 cells assessed as reduction in viral RNA replication at 2 uM by RT-qPCR analysis
Assay type: functional, organism-based

COc1ccc(C(=O)O[C@H]2[C@H](O[C@@H]3[C@@H](OC(C)=O)[C@H](O[C@H]4C[C@H]5[C@@H]6CC=C7C[C@@H](O)CC[C@]7(C)[C@H]6CC[C@]5(C)[C@@]4(O)[C@H](C)C(=O)CCC(C)C)OC[C@@H]3O)OC[C@@H](O)[C@@H]2O)cc1
Activity: Active
